For one compound, IC50 results are on record in patent US7960584B2, “Compounds, isomer thereof, or pharmaceutically acceptable salts thereof as vanilloid receptor antagonist; and pharmaceutical compositions containing the same” (Amorepacific Corporation, priority 2005, dated 2011).

The chains behind the UniProt entries cited, without tags or fusion partners.
UniProt O35433, whole entry: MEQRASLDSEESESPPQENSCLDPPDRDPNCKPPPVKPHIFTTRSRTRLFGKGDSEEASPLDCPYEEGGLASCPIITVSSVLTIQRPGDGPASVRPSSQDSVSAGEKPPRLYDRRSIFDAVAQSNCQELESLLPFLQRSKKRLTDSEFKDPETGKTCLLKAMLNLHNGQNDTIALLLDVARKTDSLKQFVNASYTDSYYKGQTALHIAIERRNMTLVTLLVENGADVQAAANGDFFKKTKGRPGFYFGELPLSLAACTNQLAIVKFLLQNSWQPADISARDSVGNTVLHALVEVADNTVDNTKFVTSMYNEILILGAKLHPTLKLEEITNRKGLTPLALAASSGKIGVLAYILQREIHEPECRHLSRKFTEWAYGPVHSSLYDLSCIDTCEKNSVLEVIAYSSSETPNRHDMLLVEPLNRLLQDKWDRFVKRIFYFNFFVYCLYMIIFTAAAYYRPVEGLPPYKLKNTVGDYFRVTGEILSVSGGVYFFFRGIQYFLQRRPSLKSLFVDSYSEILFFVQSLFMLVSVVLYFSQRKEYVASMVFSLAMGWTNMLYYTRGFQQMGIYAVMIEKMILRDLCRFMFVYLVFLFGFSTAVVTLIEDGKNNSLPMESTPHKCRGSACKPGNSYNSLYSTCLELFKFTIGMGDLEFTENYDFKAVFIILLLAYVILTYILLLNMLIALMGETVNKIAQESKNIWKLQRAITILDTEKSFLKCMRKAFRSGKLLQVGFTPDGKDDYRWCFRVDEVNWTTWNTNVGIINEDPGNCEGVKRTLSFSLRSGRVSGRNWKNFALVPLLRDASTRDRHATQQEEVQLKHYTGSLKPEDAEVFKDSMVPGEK

The target of the test is T1, vanilloid receptor (Rattus norvegicus, UniProt O35433).
T1 construct: DRG nerve cells from the primary culture of 2 days were equilibrated; endogenous in cells; host or cells: primary culture of dorsal root ganglion neurons from neonatal SD rats
The test can be described thus: 45Ca influx test in primary cultured DRG neurons (capsaicin-induced calcium uptake). As to conditions: neonatal SD rat DRG neurons; capsaicin 0.5 μM; 45Ca 10 μCi/ml; 10 min at room temperature. Type of test: cell-based. The procedure: 1) Separation of Spinal Dorsal Root Ganglia (DRG) in Newborn Rats and Primary Culture Thereof
Neonatal (2-3 day old or younger than 2-3 day old) SD rats were put in ice for 5 minutes to anesthetize and disinfected with 70% ethanol. DRG of all part of spinal cord were dissected (Wood et al., 1988, J. Neurosci. 8, pp 3208-3220) and collected in DME/F12 medium to which 1.2 g/l sodium bicarbonate, 50 mg/l gentamycin were added. The DRG were incubated sequentially at 37° C. for 30 min in 200 U/ml collagenase and 2.5 mg/ml trypsin, separately. The ganglia were washed twice with DME/F12 medium supplemented with 10% horse serum, triturated through a fire-polished Pasteur pipette, filtered through Nitex 80 membrane to obtain single cell suspension and the suspension was washed once more. This was subjected to centrifugation, then resuspended in cell culture medium at certain level of cell density. […]
DRG nerve cells from the primary culture of 2 days were equilibrated by washing 4 times with HEPES (10 mM, pH 7.4)-buffered Ca^2+, Mg^2+-free HBSS (H-HBSS). […] After the addition of scintillation cocktail of into each well, the amount of ^45Ca influx into neuron was measured by counting radioactivity.

What is called IC50 is the concentration at which inhibition is half-maximal. As for `CC(C)(C)c1ccc(C=CC(=O)NCc2ccc(NS(C)(=O)=O)c(F)c2)cc1` [Example 1, 3-[4-t-butyl-phenyl]-N-[3-fluoro-4-methanesulfonylamino-benzyl]acrylamide], the IC50 amounted to 490 nM.
